Test results as given in ChEMBL document CHEMBL1153163, “Synthesis and biological activity of 5-styryl and 5-phenethyl-substituted 2,3,4,5-tetrahydro-1H-pyrido[4,3-b]indoles” (Bioorg Med Chem Lett, 2010).

Protein sequences, listed by entry. Tags and fused reporters are not part of them.
UniProt P35367, whole entry: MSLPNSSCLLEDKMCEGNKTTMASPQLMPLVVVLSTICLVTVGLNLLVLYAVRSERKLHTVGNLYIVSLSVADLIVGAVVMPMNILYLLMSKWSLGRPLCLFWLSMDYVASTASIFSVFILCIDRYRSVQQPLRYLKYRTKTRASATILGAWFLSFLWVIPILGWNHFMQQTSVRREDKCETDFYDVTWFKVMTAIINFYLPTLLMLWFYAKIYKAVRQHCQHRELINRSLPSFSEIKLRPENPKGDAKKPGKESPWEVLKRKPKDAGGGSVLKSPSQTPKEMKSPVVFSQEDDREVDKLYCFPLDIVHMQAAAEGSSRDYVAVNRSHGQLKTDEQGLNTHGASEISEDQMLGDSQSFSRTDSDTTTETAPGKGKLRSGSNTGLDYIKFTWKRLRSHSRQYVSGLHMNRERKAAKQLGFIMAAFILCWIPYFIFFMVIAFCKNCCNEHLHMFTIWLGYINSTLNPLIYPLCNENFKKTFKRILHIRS

How the values were obtained:
[1] = biological target: T1, Histamine H1 receptor (Homo sapiens, UniProt P35367); assay: Antagonist activity at histamine H1 receptor in human SK-N-SH cells assessed as histamine-induced maximum intracellular calcium spike at phase 1 treated 15 to 20 seconds before histamine challenge
[2] = biological target: T1, Histamine H1 receptor; assay: Antagonist activity at histamine H1 receptor in human SK-N-SH cells assessed as reduction of histamine-induced intracellular calcium spike at phase 2 treated 20 to 30 seconds after histamine challenge; format: functional, cell-based
Summary of the method: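 Fura-2-loaded SK-N-SH cells with endogenous H1 receptors. Compound was added after histamine (30 s in the example shown) and scored by its effect on the rate of Ca2+ removal during the later Phase 2 of the [Ca2+]i kinetics, read by spectrofluorometer. IC50 values came from concentration curves run in duplicate.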

IC50 [1]: 40 nM
IC50 [2]: 146 nM
Structure (SMILES): Cc1ccc2c(c1)c1c(n2CCc2ccccc2)CCN(C)C1 [MARITUPIRDINE]
